# Laboratory results from US12643906B2 (dated 2026).
# The chains behind the UniProt entries cited, without tags or fusion partners. Residues count along the entry.
# UniProt P08922, 1883-2347 limits assumed: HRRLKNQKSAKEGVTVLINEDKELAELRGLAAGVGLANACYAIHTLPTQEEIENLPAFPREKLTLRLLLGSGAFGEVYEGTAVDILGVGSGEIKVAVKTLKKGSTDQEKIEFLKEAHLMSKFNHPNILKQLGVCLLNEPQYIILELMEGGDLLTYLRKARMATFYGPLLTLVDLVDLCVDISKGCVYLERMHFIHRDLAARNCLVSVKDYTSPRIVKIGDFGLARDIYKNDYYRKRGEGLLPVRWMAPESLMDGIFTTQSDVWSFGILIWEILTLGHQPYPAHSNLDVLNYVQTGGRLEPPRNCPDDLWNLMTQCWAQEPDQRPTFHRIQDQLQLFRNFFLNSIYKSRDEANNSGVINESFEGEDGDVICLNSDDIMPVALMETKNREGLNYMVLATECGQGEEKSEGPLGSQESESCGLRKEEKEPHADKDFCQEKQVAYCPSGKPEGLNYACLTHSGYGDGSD
# Target: ROS1 (Homo sapiens, UniProt P08922)
# Assay: Kinase inhibition assay with fluorescein labeled peptide, ROS1
# Type: biochemical
structure (smiles),measurement,value
"C[C@@H]1CCc2ncc(F)cc2[C@H]2CCCN2c2ccn3ncc(c3n2)C(=O)N1 [LOXO-195, reference compound]",IC50,660 pM
